In one assay the target is T1, CRF2R (Homo sapiens, UniProt Q13324).
T1 sequence (Q13324 1-411): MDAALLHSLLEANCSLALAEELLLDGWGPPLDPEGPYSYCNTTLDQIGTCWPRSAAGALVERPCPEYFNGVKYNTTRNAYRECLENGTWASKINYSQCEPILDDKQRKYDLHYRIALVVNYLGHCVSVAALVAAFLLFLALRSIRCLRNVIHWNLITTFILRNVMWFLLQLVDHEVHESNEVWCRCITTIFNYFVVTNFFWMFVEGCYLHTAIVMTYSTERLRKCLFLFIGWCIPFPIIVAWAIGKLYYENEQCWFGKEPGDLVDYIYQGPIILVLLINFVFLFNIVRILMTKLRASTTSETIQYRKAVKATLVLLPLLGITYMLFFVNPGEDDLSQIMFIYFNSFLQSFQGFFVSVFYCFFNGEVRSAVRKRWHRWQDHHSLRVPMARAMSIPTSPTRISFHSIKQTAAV
Kind of assay: CRF2R agonist activation (EC50 / Emax), called comparative CRF binding. It counts as cell-based. The settings on record: for Emax: read-out: CRF2R Emax. The procedure, abridged: (§1)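 CRFR-expressing cells + peptide vs vehicle; read-out cAMP (lysate assay) or CRE-linked reporter expression (luciferase, CAT, fluorescent protein, alkaline phosphatase, etc.). Signal compared against vehicle-treated cells.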

For a further assay, the target named is T2, CRF1R (Homo sapiens, UniProt P34998).
T2 sequence (P34998 24-415): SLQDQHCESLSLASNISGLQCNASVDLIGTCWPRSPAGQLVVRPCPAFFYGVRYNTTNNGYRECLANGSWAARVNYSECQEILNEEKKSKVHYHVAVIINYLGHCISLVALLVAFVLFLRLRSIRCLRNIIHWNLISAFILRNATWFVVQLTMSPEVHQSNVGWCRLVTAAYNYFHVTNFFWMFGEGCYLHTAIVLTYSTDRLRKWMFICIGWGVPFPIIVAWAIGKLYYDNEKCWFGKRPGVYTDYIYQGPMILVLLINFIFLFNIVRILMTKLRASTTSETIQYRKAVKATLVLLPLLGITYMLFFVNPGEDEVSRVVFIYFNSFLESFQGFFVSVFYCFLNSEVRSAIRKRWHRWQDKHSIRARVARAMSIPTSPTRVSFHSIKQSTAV
Kind of assay: CRF1R agonist activation (EC50 / Emax), called comparative CRF binding. It counts as cell-based. The note with it: for EC50: CRF1R EC50; for Emax: read-out: CRF1R Emax. The method, boiled down:
as §1

Some results are limits rather than exact numbers.

In patent US6936585B2, “Corticotropin releasing factor 2 receptor agonists” (priority 2002, dated 2005) one finds EC50 and Emax data, which are given here for six compounds.

What is called EC50 is the midpoint of the concentration-response curve. The low end stands for an effect from little substance, the high end for a need for much substance. Usually Emax stands for the maximal effect, on the per cent scale that the assay sets. In the case of `CC[C@H](C)[C@H](NC(=O)[C@@H](NC(=O)[C@H](C)NC(=O)[C@H](CC(C)C)NC(=O)[C@H](CC(C)C)NC(=O)[C@H](CC(C)C)NC(=O)[C@H](C)NC(=O)[C@H](CC(N)=O)NC(=O)[C@H](CC(N)=O)NC(=O)[C@H](C)NC(=O)[C@H](C)NC(=O)[C@H](CCC(N)=O)NC(=O)[C@H](CCC(N)=O)NC(=O)[C@H](CCCCN)NC(=O)[C@H](CCC(=O)O)NC(=O)[C@H](CCCCN)NC(=O)[C@H](CCC(=O)O)NC(=O)[C@H](CCC(N)=O)NC(=O)[C@H](CCCCN)NC(=O)[C@H](CCC(=O)O)NC(=O)[C@@H](NC(=O)[C@H](CCC(=O)O)NC(=O)[C@@H](NC(=O)[C@@H](NC(=O)[C@H](CCCCN)NC(=O)[C@H](CCCNC(=N)N)NC(=O)[C@H](CC(C)C)NC(=O)[C@H](CC(C)C)NC(=O)[C@H](CCC(N)=O)NC(=O)[C@H](Cc1ccccc1)NC(=O)[C@@H]1CCCN1C(=O)[C@H](CC(C)C)NC(=O)[C@H](CC(=O)O)NC(=O)[C@@H](NC(=O)[C@H](CO)NC(=O)[C@@H](NC(=O)[C@@H]1CCCN1C(=O)[C@@H]1CCCN1C(=O)CNC(=O)[C@@H]1CCC(=O)N1)[C@@H](C)CC)[C@@H](C)CC)[C@@H](C)CC)[C@@H](C)CC)[C@@H](C)CC)[C@@H](C)O)C(N)=O` [compound 362], at CRF2R, it took 4.39 nM to reach a half-maximal effect (EC50) and the Emax was found to be 100%. Also, on CRF1R, the EC50 is 386 nM and the Emax is 100%.
For `CC[C@H](C)[C@H](NC(=O)[C@H](CCCNC(=N)N)NC(=O)[C@H](C)NC(=O)[C@H](CC(C)C)NC(=O)[C@H](CC(C)C)NC(=O)[C@H](CCCNC(=N)N)NC(=O)[C@H](C)NC(=O)[C@H](CC(N)=O)NC(=O)[C@H](CC(N)=O)NC(=O)[C@H](C)NC(=O)[C@H](C)NC(=O)[C@H](CCC(N)=O)NC(=O)[C@H](CCC(N)=O)NC(=O)[C@H](CCCCN)NC(=O)[C@H](CCC(=O)O)NC(=O)[C@H](CCCCN)NC(=O)[C@H](CCC(=O)O)NC(=O)[C@H](CCC(N)=O)NC(=O)[C@H](CCCCN)NC(=O)[C@H](CCC(=O)O)NC(=O)[C@@H](NC(=O)[C@H](CCC(=O)O)NC(=O)[C@@H](NC(=O)[C@H](CCSC)NC(=O)[C@H](CCCCN)NC(=O)[C@H](CCCNC(=N)N)NC(=O)[C@H](CC(C)C)NC(=O)[C@H](CC(C)C)NC(=O)[C@@H](NC(=O)[C@H](CCC(N)=O)NC(=O)[C@@H]1CCCN1C(=O)[C@H](CC(C)C)NC(=O)[C@H](CC(=O)O)NC(=O)[C@@H](NC(=O)[C@H](CO)NC(=O)[C@@H](NC(=O)[C@@H]1CCCN1C(=O)[C@@H]1CCCN1C(=O)CNC(=O)[C@@H]1CCC(=O)N1)[C@@H](C)CC)[C@@H](C)CC)[C@@H](C)CC)[C@@H](C)CC)[C@@H](C)CC)C(N)=O` [compound 285], the EC50 at CRF2R was 14 nM; on CRF1R it was at least 1000 nM. Besides, the Emax on CRF2R was 97.1%; on CRF1R, 11.1%.
Consider `CC[C@H](C)[C@H](NC(=O)[C@@H](NC(=O)[C@H](CC(=O)O)NC(=O)[C@H](CC(C)C)NC(=O)[C@H](CC(C)C)NC(=O)[C@H](CC(C)C)NC(=O)[C@H](CCCNC(=N)N)NC(=O)[C@H](CC(N)=O)NC(=O)[C@H](CC(N)=O)NC(=O)[C@H](C)NC(=O)[C@H](C)NC(=O)[C@H](CCC(N)=O)NC(=O)[C@H](CCC(N)=O)NC(=O)[C@H](CCCCN)NC(=O)[C@H](CCC(=O)O)NC(=O)[C@H](CCCCN)NC(=O)[C@H](CCC(=O)O)NC(=O)[C@H](CCC(N)=O)NC(=O)[C@H](CCCCN)NC(=O)[C@H](CCC(=O)O)NC(=O)[C@@H](NC(=O)[C@H](CCC(=O)O)NC(=O)[C@@H](NC(=O)[C@H](CCSC)NC(=O)[C@H](CCCCN)NC(=O)[C@H](CCCNC(=N)N)NC(=O)[C@H](CC(C)C)NC(=O)[C@H](CC(C)C)NC(=O)[C@H](Cc1ccc(O)cc1)NC(=O)[C@@H]1CCCN1C(=O)[C@@H]1CCCN1C(=O)[C@H](CC(C)C)NC(=O)[C@H](CC(=O)O)NC(=O)[C@@H](NC(=O)[C@H](CO)NC(=O)[C@@H](NC(=O)[C@@H]1CCCN1C(=O)[C@@H]1CCCN1C(=O)CNC(=O)[C@@H]1CCC(=O)N1)[C@@H](C)CC)[C@@H](C)CC)[C@@H](C)CC)[C@@H](C)CC)[C@@H](C)O)C(N)=O` [compound 57], for which the Emax at CRF2R was found to be 46%; on CRF1R, 12%.
For `CC[C@H](C)[C@H](NC(=O)[C@@H](NC(=O)[C@H](CC(=O)O)NC(=O)[C@H](CC(C)C)NC(=O)[C@H](CC(C)C)NC(=O)[C@H](CC(C)C)NC(=O)[C@H](CCCNC(=N)N)NC(=O)[C@H](CC(N)=O)NC(=O)[C@H](CC(N)=O)NC(=O)[C@H](C)NC(=O)[C@H](C)NC(=O)[C@H](CCC(N)=O)NC(=O)[C@H](CCC(N)=O)NC(=O)[C@H](CCCCN)NC(=O)[C@H](CCC(=O)O)NC(=O)[C@H](CCCCN)NC(=O)[C@H](CCC(=O)O)NC(=O)[C@H](CCC(N)=O)NC(=O)[C@H](CCCCN)NC(=O)[C@H](CCC(=O)O)NC(=O)[C@@H](NC(=O)[C@H](CCC(=O)O)NC(=O)[C@@H](NC(=O)[C@H](CCSC)NC(=O)[C@H](CCCCN)NC(=O)[C@H](CCCNC(=N)N)NC(=O)[C@H](CC(C)C)NC(=O)[C@H](CC(C)C)NC(=O)[C@H](Cc1c[nH]c2ccccc12)NC(=O)[C@H](Cc1ccccc1)NC(=O)[C@@H]1CCCN1C(=O)[C@H](CC(C)C)NC(=O)[C@H](CC(=O)O)NC(=O)[C@@H](NC(=O)[C@H](CO)NC(=O)[C@@H](NC(=O)[C@@H]1CCCN1C(=O)[C@@H]1CCCN1C(=O)CNC(=O)[C@@H]1CCC(=O)N1)[C@@H](C)CC)[C@@H](C)CC)[C@@H](C)CC)[C@@H](C)CC)[C@@H](C)O)C(N)=O` [compound 217], in that order: 95% and 100%.
For `CC[C@H](C)[C@H](NC(=O)[C@H](CCCNC(=N)N)NC(=O)[C@H](C)NC(=O)[C@H](CC(N)=O)NC(=O)[C@@H](NC(=O)[C@@H](NC(=O)[C@H](C)NC(=O)[C@H](CCC(N)=O)NC(=O)[C@H](CCC(N)=O)NC(=O)[C@H](CCCCN)NC(=O)[C@H](CCC(=O)O)NC(=O)[C@H](CCCCN)NC(=O)[C@H](CCC(=O)O)NC(=O)[C@H](CCC(N)=O)NC(=O)[C@H](CCCCN)NC(=O)[C@H](CCC(=O)O)NC(=O)[C@@H](NC(=O)[C@H](CCC(=O)O)NC(=O)[C@@H](NC(=O)[C@H](CCSC)NC(=O)[C@H](CCCCN)NC(=O)[C@H](CCCNC(=N)N)NC(=O)[C@H](CC(C)C)NC(=O)[C@H](CC(C)C)NC(=O)[C@H](CCC(N)=O)NC(=O)[C@H](Cc1ccccc1)NC(=O)[C@@H]1CCCN1C(=O)[C@@H](NC(=O)[C@H](CC(=O)O)NC(=O)[C@@H](NC(=O)[C@H](CO)NC(=O)[C@@H](NC(=O)[C@@H]1CCCN1C(=O)[C@@H]1CCCN1C(=O)CNC(=O)[C@@H]1CCC(=O)N1)[C@@H](C)CC)[C@@H](C)CC)C(C)C)[C@@H](C)CC)[C@@H](C)CC)[C@@H](C)O)[C@@H](C)O)C(=O)N[C@@H](CC(C)C)C(=O)N[C@@H](C)C(=O)N[C@@H](CCCNC(=N)N)C(=O)N[C@H](C(N)=O)C(C)C` [compound 172], in that order: 100% and 68%.
As for `CC[C@H](C)[C@H](NC(=O)[C@H](CCCNC(=N)N)NC(=O)[C@H](C)NC(=O)[C@H](CC(C)C)NC(=O)[C@H](CC(C)C)NC(=O)[C@H](CCCNC(=N)N)NC(=O)[C@H](C)NC(=O)[C@H](CC(N)=O)NC(=O)[C@H](CC(N)=O)NC(=O)[C@H](C)NC(=O)[C@H](C)NC(=O)[C@H](CCC(N)=O)NC(=O)[C@H](CCC(N)=O)NC(=O)[C@H](CCCCN)NC(=O)[C@H](CCC(=O)O)NC(=O)[C@H](CCCCN)NC(=O)[C@H](CCC(=O)O)NC(=O)[C@H](CCC(N)=O)NC(=O)[C@H](CCCCN)NC(=O)[C@H](CCC(=O)O)NC(=O)[C@@H](NC(=O)[C@H](CCC(=O)O)NC(=O)[C@@H](NC(=O)[C@@H](NC(=O)[C@H](CCCCN)NC(=O)[C@H](CCCNC(=N)N)NC(=O)[C@H](CC(C)C)NC(=O)[C@H](CC(C)C)NC(=O)[C@H](Cc1ccc(O)cc1)NC(=O)[C@H](Cc1ccc(O)cc1)NC(=O)[C@@H]1CCCN1C(=O)[C@@H](NC(=O)[C@H](CC(=O)O)NC(=O)[C@@H](NC(=O)[C@H](CO)NC(=O)[C@@H](NC(=O)[C@@H]1CCCN1C(=O)[C@@H]1CCCN1C(=O)CNC(=O)[C@@H]1CCC(=O)N1)[C@@H](C)CC)[C@@H](C)CC)C(C)C)C(C)C)[C@@H](C)CC)[C@@H](C)CC)C(N)=O` [compound 378], on CRF2R, the EC50 amounted to 14.9 nM and the Emax was determined as 100%. On CRF1R, the EC50 is at least 1000 nM and the Emax was determined as 36%.
